Laboratory results reported in patent publication US20070021391A1, “Preventive/remedy for urinary disturbance” (priority 2003, published 2007).

Sequences of proteins named here, by UniProt entry; tags and fusion partners are left off. Residues count along the entry.
UniProt P06276, 29-602: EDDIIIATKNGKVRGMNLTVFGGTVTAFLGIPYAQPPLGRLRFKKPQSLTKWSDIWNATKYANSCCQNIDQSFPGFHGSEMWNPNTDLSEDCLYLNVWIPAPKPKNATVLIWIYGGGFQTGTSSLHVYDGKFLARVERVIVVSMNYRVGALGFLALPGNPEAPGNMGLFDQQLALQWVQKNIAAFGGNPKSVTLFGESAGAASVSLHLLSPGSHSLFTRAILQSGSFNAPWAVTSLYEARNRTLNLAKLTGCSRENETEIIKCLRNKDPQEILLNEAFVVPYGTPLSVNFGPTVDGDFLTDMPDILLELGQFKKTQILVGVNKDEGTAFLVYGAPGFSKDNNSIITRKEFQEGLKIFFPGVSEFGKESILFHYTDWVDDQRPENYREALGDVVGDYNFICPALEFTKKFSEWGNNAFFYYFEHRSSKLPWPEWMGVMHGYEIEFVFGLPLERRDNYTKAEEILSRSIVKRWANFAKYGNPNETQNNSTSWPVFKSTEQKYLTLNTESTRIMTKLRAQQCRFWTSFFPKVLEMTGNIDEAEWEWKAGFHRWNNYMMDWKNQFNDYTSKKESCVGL

Target: T1, butyrylcholine esterase of human serum origin (Homo sapiens, UniProt P06276)
T1 construct: butyrylcholine esterase of human serum origin; purchased Biogenesis, Poole, UK; host or cells: human serum
Assay: biochemical
Procedure: The AChE inhibitory activity and the BuChE inhibitory activity were determined by a thiocholine method (Ellman method) using acetylcholine esterase of human erythrocyte origin (Sigma, St. Louis, Mo., USA) and butyrylcholine esterase of human serum origin (Biogenesis, Poole, UK). Acetylcholine esterase or butyrylcholine esterase was diluted to a concentration of 0.2 IU/mL with 80 mM tris-HCL buffers (pH=7.4) containing 0.3% bovine serum albumin (BSA) to prepare an enzyme preparation. […]. The stock solution was diluted at 3-fold common ratio with 10% DMSO and 80 mM tris-HCl buffers containing 0.3% BSA. […] Thereto, 50 μL of 5 mM 5,5-dithio-bis(2-nitrobenzoic acid) (Sigma, St. Louis, Mo., USA) and 50 μL of 4 mM acetylthiocholine iodide (Sigma) or 4 mM butyrylthiocholine chloride were added and shaken again, and then the increase of light absorption at 412 nm was immediately measured at 30 second-intervals for 10 minutes with a microplate reader (Spectra rainbow thermo, TECAN, Austria). […] The % of control of the increase in light absorption was calculated at each concentration with respect to the respective drugs. % of control=increase in light absorption of drug/increase in light absorption of control×100

## CC(C)NP(=O)(NC(C)C)OP(=O)(NC(C)C)NC(C)C [iso-OMPA, tetraisopropylpyrophosphoramide]
  IC50: 3.2 µM
